According to patent US4125615A, “2-[4-(P-Aminobenzyl)-1-piperazinyl]-8-ethyl-5,8-dihydro-5-oxopyrido[2,3-d]p y” (priority 1976, dated 1978):

Key:
in vivo = details: mouse, po
Source text: (§1) (5) acute toxicity in mice
(§2) Female ddY strain mice, weighing 25 to 33 g, were used. Test compounds were suspended in 0.2% carboxymethyl cellulose for oral administration, and dissolved in NaOH solution (final pH 8.8-9.2) for intravenous administration.

mice = assay: in vivo; details: mouse, iv, 168 h
Source text: as §1, §2

CCn1cc(C(=O)O)c(=O)c2cnc(N3CCNCC3)nc21 [Compound PPA, 2-(1-piperazinyl)-8-ethyl-5,8-dihydro-5-oxopyrido [2,3-d]pyrimidine-6-carboxylic acid]
LD50 at 168 h (in vivo): > 2000 mg/kg | LD50 (intravenous administration) (mice): 707 mg/kg
